Assay results taken from patent US10214477B2 (dated 2019).

By UniProt entry, the sequences of proteins in these tests, tags left out.
UniProt P21397, whole entry: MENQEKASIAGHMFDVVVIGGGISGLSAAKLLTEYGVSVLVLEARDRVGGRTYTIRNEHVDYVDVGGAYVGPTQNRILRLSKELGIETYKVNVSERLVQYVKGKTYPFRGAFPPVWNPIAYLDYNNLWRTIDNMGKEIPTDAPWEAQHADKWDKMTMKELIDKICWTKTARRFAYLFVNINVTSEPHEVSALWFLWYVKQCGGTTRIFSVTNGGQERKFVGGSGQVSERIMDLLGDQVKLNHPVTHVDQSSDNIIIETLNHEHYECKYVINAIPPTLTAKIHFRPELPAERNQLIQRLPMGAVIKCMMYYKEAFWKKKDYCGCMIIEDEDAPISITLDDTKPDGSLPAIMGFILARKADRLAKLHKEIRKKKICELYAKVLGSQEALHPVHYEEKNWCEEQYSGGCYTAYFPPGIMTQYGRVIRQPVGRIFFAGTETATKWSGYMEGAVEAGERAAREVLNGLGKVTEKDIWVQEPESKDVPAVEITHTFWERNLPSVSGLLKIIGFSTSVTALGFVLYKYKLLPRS
UniProt P27338, whole entry: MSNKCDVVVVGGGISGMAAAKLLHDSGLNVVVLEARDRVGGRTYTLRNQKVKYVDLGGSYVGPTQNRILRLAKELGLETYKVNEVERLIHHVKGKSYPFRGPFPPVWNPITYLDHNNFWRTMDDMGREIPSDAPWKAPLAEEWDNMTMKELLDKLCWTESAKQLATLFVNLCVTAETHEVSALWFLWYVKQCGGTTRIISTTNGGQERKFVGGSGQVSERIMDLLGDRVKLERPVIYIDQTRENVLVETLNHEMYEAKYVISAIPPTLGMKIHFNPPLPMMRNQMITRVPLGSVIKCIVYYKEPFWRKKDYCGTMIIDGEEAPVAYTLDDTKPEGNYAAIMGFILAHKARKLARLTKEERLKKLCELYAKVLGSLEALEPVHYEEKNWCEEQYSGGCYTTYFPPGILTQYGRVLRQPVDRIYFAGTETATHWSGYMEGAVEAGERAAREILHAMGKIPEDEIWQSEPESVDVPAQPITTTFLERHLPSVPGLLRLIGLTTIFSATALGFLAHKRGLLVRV

molecular target: Human recombinant monoamine oxidase MAO-A (Homo sapiens (Human), UniProt P21397); assay: Monoamine oxidase assay (kynuramine to 4-hydroxyquinoline fluorescence), MAO-A; format: biochemical; conditions: not given

Row | SMILES | Ki [nM]
1 | OC1CCC(N[C@@H]2C[C@H]2c2ccc(-c3cccc(C(F)(F)F)c3)nc2)CC1 (relative stereo) [Example 11, 4-(((trans)-2-(6-(3-(trifluoromethyl)phenyl)pyridin-3-yl)cyclopropyl)amino)cyclohexanol] | 1000 to 40000
2 | NC(=O)C1CCC(N[C@@H]2C[C@H]2c2ccc(-c3cccc(C(F)(F)F)c3)nc2)CC1 (relative stereo) [Example 12, 4-(((trans)-2-(6-(3-(trifluoromethyl)phenyl)pyridin-3-yl)cyclopropyl)amino)cyclohexanecarboxamide hydrochloride] | 1000 to 40000

molecular target: Human recombinant monoamine oxidase MAO-B (Homo sapiens (Human), UniProt P27338); assay: Monoamine oxidase assay (kynuramine to 4-hydroxyquinoline fluorescence), MAO-B; format: biochemical; conditions: not given

Row | SMILES | Ki [nM]
3 | OC1CCC(N[C@@H]2C[C@H]2c2ccc(-c3cccc(C(F)(F)F)c3)nc2)CC1 (relative stereo) [Example 11, 4-(((trans)-2-(6-(3-(trifluoromethyl)phenyl)pyridin-3-yl)cyclopropyl)amino)cyclohexanol] | 1000 to 40000
4 | NC(=O)C1CCC(N[C@@H]2C[C@H]2c2ccc(-c3cccc(C(F)(F)F)c3)nc2)CC1 (relative stereo) [Example 12, 4-(((trans)-2-(6-(3-(trifluoromethyl)phenyl)pyridin-3-yl)cyclopropyl)amino)cyclohexanecarboxamide hydrochloride] | 1000 to 40000

test system: THP-1 cells; assay: cells; conditions: Homo sapiens, THP-1, 96 h

Row | SMILES | EC50 [nM]
5 | N[C@H]1CC[C@H](N[C@@H]2C[C@H]2c2ccc(-c3cccc(C(F)(F)F)c3)cc2)CC1 [Example 39, (Trans)-N1-((1R,2S)-2-(3′-(trifluoromethyl)-[1,1′-biphenyl]-4-yl)cyclo-propyl)cyclohexane-1,4-diamine] | 6.6
6 | NC1CCC(NC2CC2c2ccc3ccccc3c2)CC1 (centres unmarked) [Example 33, N1-(2-(naphthalen-2-yl)cyclopropyl)cyclohexane-1,4-diamine] | 13.9
7 | NC1CCC(N[C@H]2C[C@@H]2c2cncs2)CC1 (relative stereo) [Example 6, N1-((trans)-2-(thiazol-5-yl)cyclopropyl)cyclohexane-1,4-diamine hydrochloride] | > 200
8 | NCC1CCC(N[C@H]2C[C@@H]2c2ccccc2)CC1 (relative stereo) [Example 17] | 6.3
9 | NC1CC(N[C@H]2C[C@@H]2c2ccccc2)C1 (relative stereo) [Example 19, N1-((trans)-2-phenylcyclopropyl)cyclobutane-1,3-diamine] | 2.2
10 | CNC1CCC(N[C@H]2C[C@@H]2c2ccccc2)CC1 (relative stereo) [Example 22, N1-methyl-N4-((trans)-2-phenylcyclopropyl)cyclohexane-1,4-diamine] | 3.6
11 | N[C@H]1CC[C@@H](N[C@@H]2C[C@H]2c2ccc(-c3cccc(C(F)(F)F)c3)cc2)CC1 [Example 38, (Cis)-N1-((1R,2S)-2-(3′-(trifluoromethyl)-[1,1′-biphenyl]-4-yl)cyclo-propyl)cyclohexane-1,4-diamine] | 20
12 | NC1CCC(N[C@H]2C[C@@H]2c2ccc(OCc3ccccc3F)cc2)CC1 (relative stereo) [Example 57, N1-((trans)-2-(4-((2-fluorobenzyl)oxy)phenyl)cyclopropyl)cyclohexane-1,4-diamine] | 2
13 | NC1CCC(N[C@H]2C[C@@H]2c2ccc(Br)cc2)CC1 (relative stereo) [Example 26, N1-((trans)-2-(4-bromophenyl)cyclopropyl)cyclohexane-1,4-diamine] | 9.7
14 | NC1CCC(N[C@H]2C[C@@H]2c2ccc(C3CC3)cc2)CC1 (relative stereo) [Example 40, N1-((trans)-2-(4-cyclopropylphenyl)cyclopropyl)cyclohexane-1,4-diamine] | 2.5

Structures can show the parent of a compound that is named as a salt.
